Biological target: Poly [ADP-ribose] polymerase 1 (Homo sapiens, UniProt P09874)

By UniProt entry, the sequences of proteins in these tests, tags left out.
UniProt P09874, whole entry: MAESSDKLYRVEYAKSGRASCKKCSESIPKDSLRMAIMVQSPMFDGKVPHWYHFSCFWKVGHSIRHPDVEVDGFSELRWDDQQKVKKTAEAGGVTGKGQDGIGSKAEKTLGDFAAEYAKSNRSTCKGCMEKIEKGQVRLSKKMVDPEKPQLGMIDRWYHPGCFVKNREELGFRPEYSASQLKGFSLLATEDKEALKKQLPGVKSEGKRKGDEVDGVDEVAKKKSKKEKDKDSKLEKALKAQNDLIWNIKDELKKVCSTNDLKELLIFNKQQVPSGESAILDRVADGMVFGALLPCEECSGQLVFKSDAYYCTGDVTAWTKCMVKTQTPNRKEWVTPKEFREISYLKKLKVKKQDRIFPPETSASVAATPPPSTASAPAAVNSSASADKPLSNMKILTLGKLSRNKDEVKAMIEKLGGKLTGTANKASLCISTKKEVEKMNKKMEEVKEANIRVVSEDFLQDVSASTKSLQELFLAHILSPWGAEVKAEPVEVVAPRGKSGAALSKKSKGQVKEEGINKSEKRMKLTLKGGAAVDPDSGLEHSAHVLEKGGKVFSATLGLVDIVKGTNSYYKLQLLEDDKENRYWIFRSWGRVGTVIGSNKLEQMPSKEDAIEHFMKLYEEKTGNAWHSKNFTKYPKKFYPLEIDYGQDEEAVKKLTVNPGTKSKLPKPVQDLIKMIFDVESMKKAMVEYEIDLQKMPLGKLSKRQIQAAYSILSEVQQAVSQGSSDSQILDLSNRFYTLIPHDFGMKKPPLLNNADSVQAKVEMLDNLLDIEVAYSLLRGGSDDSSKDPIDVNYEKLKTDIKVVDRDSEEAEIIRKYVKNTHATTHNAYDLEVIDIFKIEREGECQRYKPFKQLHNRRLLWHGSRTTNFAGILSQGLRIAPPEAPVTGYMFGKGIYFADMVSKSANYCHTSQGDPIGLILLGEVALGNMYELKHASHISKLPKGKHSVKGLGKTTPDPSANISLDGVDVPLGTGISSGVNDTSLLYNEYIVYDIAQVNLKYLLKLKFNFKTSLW

| Compound | IC50 [nM] |
| --- | --- |
| CN1CC(=O)N(c2cc(Cc3n[nH]c(=O)c4ccccc34)ccc2F)C(=O)C1 | 9.5 |
| CC1(C)CC(=O)N(c2cc(Cc3n[nH]c(=O)c4ccccc34)ccc2F)C1=O | 9.8 |
| O=C1CCCC(=O)N1c1cc(Cc2n[nH]c(=O)c3ccccc23)ccc1F | 4.1 |

Reference: ChEMBL document CHEMBL1141921, “Phthalazinones. Part 1: The design and synthesis of a novel series of potent inhibitors of poly(ADP-ribose)polymerase” (Bioorg Med Chem Lett, 2005)
